Patent US7351732B2, “Cycloalkanedione derivatives, method for the production thereof and their pharmacological applications” (Schwarz Pharma S.L., priority 2002, dated 2008)

Sequences of proteins named here, by UniProt entry; tags and fusion partners are left off. A change or cut given only in a name is not applied to a line headed by its entry. Residues count along the entry.
UniProt P35563, 24-483: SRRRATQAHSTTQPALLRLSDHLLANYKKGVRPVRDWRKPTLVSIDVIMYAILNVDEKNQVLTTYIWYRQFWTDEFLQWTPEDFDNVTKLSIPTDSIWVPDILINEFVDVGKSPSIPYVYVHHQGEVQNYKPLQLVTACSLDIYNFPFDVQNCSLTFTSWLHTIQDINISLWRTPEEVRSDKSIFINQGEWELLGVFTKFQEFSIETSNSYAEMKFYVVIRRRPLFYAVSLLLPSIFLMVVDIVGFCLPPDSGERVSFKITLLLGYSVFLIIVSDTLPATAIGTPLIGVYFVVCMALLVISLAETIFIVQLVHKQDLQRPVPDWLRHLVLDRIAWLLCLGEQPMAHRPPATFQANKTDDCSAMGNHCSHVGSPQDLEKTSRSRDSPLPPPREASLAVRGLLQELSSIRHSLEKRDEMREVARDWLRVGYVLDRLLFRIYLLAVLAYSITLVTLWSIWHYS
UniProt P19327, whole entry: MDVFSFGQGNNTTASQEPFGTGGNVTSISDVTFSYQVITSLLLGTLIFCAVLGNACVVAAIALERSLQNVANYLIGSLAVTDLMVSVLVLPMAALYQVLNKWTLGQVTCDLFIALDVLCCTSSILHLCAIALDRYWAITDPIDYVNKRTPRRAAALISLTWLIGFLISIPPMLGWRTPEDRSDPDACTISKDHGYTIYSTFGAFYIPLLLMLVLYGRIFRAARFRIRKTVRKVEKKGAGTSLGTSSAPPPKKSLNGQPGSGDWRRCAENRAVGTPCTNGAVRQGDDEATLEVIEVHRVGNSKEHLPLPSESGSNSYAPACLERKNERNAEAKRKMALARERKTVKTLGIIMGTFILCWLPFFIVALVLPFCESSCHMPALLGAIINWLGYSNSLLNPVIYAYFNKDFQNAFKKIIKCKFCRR
UniProt Q62758: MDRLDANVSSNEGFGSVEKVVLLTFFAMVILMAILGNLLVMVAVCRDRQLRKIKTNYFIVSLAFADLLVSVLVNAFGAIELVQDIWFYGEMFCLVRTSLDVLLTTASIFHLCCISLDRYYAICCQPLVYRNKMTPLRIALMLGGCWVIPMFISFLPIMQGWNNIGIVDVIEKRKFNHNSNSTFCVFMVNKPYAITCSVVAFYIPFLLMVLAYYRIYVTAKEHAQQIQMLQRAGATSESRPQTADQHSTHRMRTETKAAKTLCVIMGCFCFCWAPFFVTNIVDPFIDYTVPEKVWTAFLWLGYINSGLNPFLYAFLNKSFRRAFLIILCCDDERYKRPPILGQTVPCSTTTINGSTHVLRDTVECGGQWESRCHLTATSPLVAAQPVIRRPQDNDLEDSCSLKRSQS
UniProt P08908, whole entry: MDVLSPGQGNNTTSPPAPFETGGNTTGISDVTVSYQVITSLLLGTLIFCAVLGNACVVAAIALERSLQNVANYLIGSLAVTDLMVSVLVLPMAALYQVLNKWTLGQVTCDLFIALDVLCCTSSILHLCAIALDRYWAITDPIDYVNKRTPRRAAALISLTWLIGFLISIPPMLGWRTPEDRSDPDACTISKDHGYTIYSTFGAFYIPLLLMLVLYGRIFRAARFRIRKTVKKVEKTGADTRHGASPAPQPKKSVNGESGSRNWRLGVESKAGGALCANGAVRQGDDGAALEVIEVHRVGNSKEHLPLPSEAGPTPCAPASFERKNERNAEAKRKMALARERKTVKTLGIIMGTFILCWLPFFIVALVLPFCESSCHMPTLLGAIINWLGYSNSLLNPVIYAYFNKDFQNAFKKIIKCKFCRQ

Experiments:
5-HT3 receptors = target: T1, 5-HT3 receptors (Rattus norvegicus, UniProt P35563); assay: Radioligand displacement, 5-HT3 receptors, [3H]LY 278584; assay type: binding
T1 construct: (c) 5-HT3 receptors, [^3H]LY 278584, rat cerebral cortex; from tissue; host or cells: rat cerebral cortex

5-HT1A = 5-HT1A (Rattus norvegicus, UniProt P19327); assay: Radioligand displacement, 5-HT1A receptors, [3H]-8-OH-DPAT; assay type: binding; design: (a) 5-HT1A receptors, [^3H]-8-OH-DPAT, rat cerebral cortex; from tissue; host or cells: rat cerebral cortex
5-HT4 receptors = target: T2, 5-HT4 receptors (Rattus norvegicus, UniProt Q62758); assay: Radioligand displacement, 5-HT4 receptors, [3H]GR 113808; assay type: binding; conditions: [3H]GR 113808, rat striatum; read-out: Ki ± E.E. 5-HT4
T2 construct: (d) 5-HT4 receptors, [^3H]GR 113808, rat striatum; from tissue; host or cells: rat striatum

5-human HT1A receptor = target: T3, 5-human HT1A receptor (Homo sapiens, UniProt P08908); assay: Test on adenylate cyclase in He-La cells (inhibition of forskolin stimulation); assay type: cell-based
T3 construct: expressed in transfected cells; host or cells: HeLa cells
Excerpt: The functional character of the new compounds was initially determined by studying their effect on adenylate cyclase in He—La cells transfected with the […], measuring their inhibiting effect on the stimulation of the enzyme induced by forskolin (Table 3 below).

NCCc1c[nH]c2ccc(O)cc12 [Compound 5-HT, 5-hydroxytriptamine, reference compound]
Ki (5-HT3 receptors): 13.8 ± 2.4 nM | Ki (5-HT1A): 0.84 ± 0.27 nM | Ki (5-HT4 receptors): 53.8 ± 3.3 nM

O=C1C2CCCN2C(=O)N1CCCCNCC1CCc2ccccc2O1 (racemic) [Compound 1, (±)-2-[4-[(Chroman-2-yl)methylamine]butyl]-1,3-dioxoperhydropyrrolo[1,2-c]imidazol]
% Maximum inhibition (5-human HT1A receptor): 94.6% | EC50 (5-human HT1A receptor): 16.3 nM
